Key:
[1] = molecular target: human serotonin transporter (h-SERT) (Homo sapiens (Human), UniProt P31645); test: [3H] citalopram binding assay to evaluate human serotonin reuptake inhibitory action (h-SERT binding assay); settings: read-out: Test Ex. 1: h-SERT binding inhibition constant Ki
Experimental: Citalopram Binding Assay to Evaluate Human Serotonin Reuptake Inhibitory Action
(§1) Preparation of the Cells and Membrane Preparations
In the experiment, human serotonin transporter (h-SERT) was expressed in CHO cells (h-SERT/CHO). The cells were incubated with F12 containing 10% FCS, 500 μg/mL Geneticin and 100 U/mL penicillin—100 μg/mL streptmycin (all manufactured by Sigma Aldrich) in an incubator containing 5% CO2; detached and collected using a SERT buffer [50 mmol/L Tris-HCl comprising 120 mmol/L NaCl and 5 mmol/L KCl (pH=7.4)]; homogenized with a homogenizer manufactured by Teflon (trademark); and then centrifuged (50,000×g, 30 min, 4° C.). The precipitate was suspended again in the appropriate amount of SERT buffer (to give a membrane preparation), and stored at −80° C. until used. […]
The [^3H] citalopram binding was measured according to the method disclosed in Owens M. J. et al., J. Pharm. […] The glass fiber filter was washed twice with […] of the SERT buffer, placed in a plastic vial containing 4 mL of liquid scintillator (ACS-II, manufactured by Amersham) or Ecoscint A (manufactured by National Diagnostics), and the remaining radioactivity on the filter paper was assayed with a liquid scintillation counter.

The chains behind the UniProt entries cited, without tags or fusion partners. Where a name states a change or a piece, a line headed by the entry shows the natural chain unless it says otherwise.
UniProt P28335: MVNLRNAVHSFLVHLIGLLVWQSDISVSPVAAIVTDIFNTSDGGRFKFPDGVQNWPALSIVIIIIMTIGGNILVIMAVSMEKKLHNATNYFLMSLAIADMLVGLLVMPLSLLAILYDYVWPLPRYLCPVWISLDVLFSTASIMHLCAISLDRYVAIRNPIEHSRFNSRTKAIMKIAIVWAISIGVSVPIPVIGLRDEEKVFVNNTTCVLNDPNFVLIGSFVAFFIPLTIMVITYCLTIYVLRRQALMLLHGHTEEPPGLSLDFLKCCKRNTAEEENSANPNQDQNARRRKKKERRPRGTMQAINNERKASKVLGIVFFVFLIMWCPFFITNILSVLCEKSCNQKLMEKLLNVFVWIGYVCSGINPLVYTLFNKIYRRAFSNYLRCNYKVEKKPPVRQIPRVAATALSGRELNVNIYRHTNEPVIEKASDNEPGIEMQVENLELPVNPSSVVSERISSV

[2] = molecular target: T1, human serotonin 2C receptor (h-5-HT2C) (Homo sapiens (Human), UniProt P28335); test: [3H] mesulergine binding assay to evaluate affinity for human 5-HT2C receptor; settings: h-5-HT2C/CHO membrane preparation, read-out: Test Ex. 2: 5-HT2C receptor binding inhibition constant Ki
Experimental: Mesulergine Binding Assay to Evaluate Affinity for Human 5-HT2C Receptor
as §1
(§2) In the experiment, human serotonin 2C receptor (h-5-HT2C) was expressed in CHO cells (h-5-HT2C/CHO). The cells were incubated with UltraCHO Lipuid (trademark) (manufactured by BioWhitakker) containing 1% FBS, 400 μg/mL Geneticin, 100 U/mL penicillin—100 μg/mL streptomycin (all manufactured by Sigma Aldrich) and 250 μg/mL Zeosin (manufactured by InvivoGen) in an incubator containing 5% CO2; detached and collected using 50 mmol/L Tris-HCl (pH=7.4); homogenized with a homogenizer manufactured by Teflon (trademark); and then centrifuged (48,000×g, 25 min, 4° C.). […]
A solution of 200 μL in total was prepared by mixing 50 μL of [^3H] mesulergine (manufactured by GE Healthcare) diluted with 50 mmol/L Tris-HCl (pH=7.4) (final concentration: about 2 nmol/L), 149 μL of the h-5-HT2C/CHO membrane preparation (protein amount: 20 μg/well), and 1 μL of the test drug dissolved in dimethylsulfoxide. […] The glass fiber filter was washed twice with 250 μL of 50 mmol/L Tris-HCl (pH=7.4), placed in a plastic vial containing 4 mL of liquid scintillator (ACS-II, manufactured by Amersham) or Ecoscint A (manufactured by National Diagnostics), and the remaining radioactivity on the filter paper was assayed with a liquid scintillation counter. […]

[3] = molecular target: T1, human serotonin 2C receptor (h-5-HT2C); test: 5-HT2C receptor agonistic action assay (FLIPR Calcium 4 Assay kit, h-5-HT2C/CHO cells); format: cell-based; settings: test material 10 μmol/L; 100% = 10 μmol/L 5-HT, −100% = 10 μmol/L SB206553; below 0% = inverse agonistic action
Experimental: 3-1. The Cells and Inoculation Thereof
as §2, with “CO2.” for “CO2; detached and collected using 50 mmol/L Tris-HCl (pH=7.4); homogenized with a homogenizer manufactured by Teflon (trademark); and then centrifuged (48,000×g, 25 min, 4° C.).”
The 5-HT2C receptor agonistic action was evaluated with FLIPR Calcium 4 Assay kit (manufactured by Molecular Devices). […] Then, the cells were set in FLIPR TETRA (trademark) (manufactured by Molecular Devices), to the cells was added the test material diluted with HHBP buffer, 2.5 mmol/L Probenecid (manufactured by Sigma) (concentration after dilution: 10 μmol/L) at an amount of 20 μL/well, and the fluorescence was measured. Then, in order to evaluate the antagonistic action of the test material, 20 μL/well of 5-HT solution (manufactured by Sigma, final concentration: 0.1 nmol/L) was further added to the cells, and the fluorescence was measured.
The 5-HT2C receptor agonistic action of each test material was calculated as a rate of fluorescence enhancement wherein 100% was defined as a value when the cells were given 10 μmol/L 5-HT. […]

Row | Compound | Ki [1] [nM] | Ki [2] [nM] | Test Ex. 3: 5-HT2C receptor agonistic action [3] [%]
1 | CNCc1cc(OCc2ccccc2)n(CC2CC3CCC2C3)n1 (stereo not drawn) [Example 115] | 1.5 | 5.4 | −103
2 | CCCCn1nc(CNC)cc1OCc1cc(F)ccc1F [Example 242] | 0.52 | 34 | −95

Reference: patent publication US10183913B2, “Pyrazole compound” (Sumitomo Dainippon Pharma Co., Ltd., priority 2010, dated 2019)
